Reference: ChEMBL document CHEMBL3352017, “2-Guanidinoquinazolines as new inhibitors of the STAT3 pathway” (Bioorg Med Chem Lett, 2014)

Columns and labels:
cells [1] = details: Homo sapiens
cells [2] = details: Homo sapiens, CAL-33
FaDu = test: cells; details: Homo sapiens
cells [3] = details: Homo sapiens, OSC19

- IC50 (cells [1]): > 5000 nM
- IC50 (cells [2]): 1300 nM
- IC50 (FaDu): 2400 nM
- IC50 (cells [3]): 7700 nM
Compound: CC(C)(C)c1nc2c3ccc(F)cc3c3c(=O)[nH]ccc3c2[nH]1
